The record followed here is patent US20230322930A1, “USE OF AN ANTI-PD-1 ANTIBODY AND A CYTOTOXIC ANTICANCER DRUG IN TREATMENT OF NON-SMALL CELL LUNG CANCER” (SHANGHAI JUNSHI BIOSCIENCES CO., LTD., priority 2020, published 2023).

This experiment has as its system advanced or recurrent NSCLC with EGFR-sensitive mutations after failure of EGFR-TKI treatment. The experiment in a line: Phase II clinical trial, antitumor activity study (RECIST v1.1 / irRECIST). Conditions: with pemetrexed + carboplatin.
Setting [1] is: RECIST v1.1, among all 40 patients.
The mark [2] stands for this setting: irRECIST, number of patients of 40.

As for “toripalimab: anti-PD-1 humanized IgG4 mAb with light and heavy chains of SEQ ID NOs: 9 and 10; described in WO 2014206107”, the “PFS and overall survival, patients with L858R mutation compared with exon 19 deletion” value is recorded as “longer”; the “median DOR” value is recorded as 7.0 months. Besides, the “ORR, 240 mg toripalimab group” value (240 mg Q3W, n=10) turned out to be 50.0%. Moreover, the “ORR, 360 mg toripalimab group” value (360 mg Q3W, n=30) is 50.0%. Besides, the “ORR, patients with erlotinib as first-line EGFR TKI treatment” value (4 patients) is reported as 75.0%. For the setting “16 patients”, the “ORR, patients with icotinib as first-line EGFR TKI treatment” value amounted to 62.5%. Also, the “ORR, patients with EGFR L858R mutant” value (17 patients) stood at 58.8%. Moreover, for the setting “20 patients”, the “ORR, patients with gefitinib as first-line EGFR TKI treatment” value was 35.0%. Further, for the setting “23 patients”, the “ORR, patients with exon 19 deletion” value is recorded as 43.5%. For the same substance, for the setting “36 patients”, the “patients with a reduction in tumor size compared to baseline” value is on record as 90.0%. Also, for the setting “95% CI: 0.16-1.42, p=0.18”, the “overall survival HR, L858R mutation vs exon 19 deletion” value came out at 0.48. Further, under setting [1], the “patients with partial remissions” value amounted to 20 patients and the “patients with stable disease” value stood at 15 patients. Also, the “overall diagnosed ORR” value (RECIST v1.1, n = 40, 95% CI: 33.8-66.2) was 50%. In addition, under “RECIST v1.1, n = 40, 95% CI: 73.2-95.8”, the DCR came out at 87.5%. The patients died (all 40 patients, as of Jul. 10, 2020, median follow-up 7.2 months) worked out at 32.5%. In addition, under “all 40 patients, as of Jul. 10, 2020”, the “treatments discontinued due to disease progression” value is reported as 55.0%. Where the note is “irRECIST, 95% CI: 36.1-68.5”, the “ORR using irRECIST criteria” value was found to be 52.5%. The “DCR using irRECIST criteria” value (irRECIST, 95% CI: 73.2-95.8) is listed as 87.5%. Further, under setting [2], the “PRs using irRECIST criteria” value was found to be 21 and the “SDs using irRECIST criteria” value turned out to be 14. In addition, the “median PFS” value (n = 40, 95% CI: 4.8-8.4) was found to be 7.0 months. Moreover, the “median OS” value (n = 40, 95% CI: 18.0-NE months) is “not reached”. The “ORR at week 12” value (n = 40) came to 30.0%.
